From article PMC4975651 (Molecular cell, 2016)

System: GST-ZMYND8-PBP
Experiment: Peptide pull-down assay, GST-ZMYND8-PBP
Format: binding, human
Details: biotinylated peptides; H2Aac, H2Bac, H3ac and H4ac peptides tested

H3K14ac: acetylated H3K14 histone peptide
interaction with ZMYND8-PBP (pull-down): specifically interacted
